# Yeast mating assay B: variants of the scFv Ab-14

The target is the same throughout: PDVDLGDISGINAS, from the HR2 region of SARS-CoV-2 spike.

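The variants were designed computationally from a first round of random CDR variants and then made and measured. Group labels follow the data file (En: ensemble of fine-tuned language models; GP: Gaussian process model; HC: hill climbing; Gen: genetic algorithm; Gibbs: Gibbs sampling; a sequence that several methods proposed may carry one label only). The assay is AlphaSeq: two haploid yeast populations carry antibody and antigen on their surface. The frequency of each diploid, read from paired DNA barcodes, reflects how well the two displayed proteins bind. The ratio of observed to expected reads was calibrated, replicate by replicate, on BCL2-family standards whose Kd was known from biolayer interferometry. Each pool was mated in six replicate cultures.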

Parent: Ab-14, a human scFv built as VH, a (GGGGS)3 linker, VL. Only the CDRs of the light chain vary.
VH: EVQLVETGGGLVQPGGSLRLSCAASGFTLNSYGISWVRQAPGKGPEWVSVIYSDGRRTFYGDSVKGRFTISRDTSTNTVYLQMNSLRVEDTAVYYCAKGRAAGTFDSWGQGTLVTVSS
VL: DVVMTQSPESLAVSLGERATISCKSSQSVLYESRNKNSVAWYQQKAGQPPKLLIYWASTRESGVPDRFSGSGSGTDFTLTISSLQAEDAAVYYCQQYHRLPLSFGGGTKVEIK

Each variant is given by its three light chain CDRs, as the data file delimits them; those of the parent are KSSQSVLYESRNKNSVA, WASTRES, QQYHRLPLS. Variants here have more than six changes. Scale: log10 of Kd in nM, estimated from mating counts; low values are strong binders. A mean of the replicates is given; it leaves out those without a signal. "nd" marks a missing value. The strain was present, yet no cells mated with the target were sequenced in that replicate, which points to weak or no binding. Nonspecific signal, from three strains lacking the peptide, appeared in 4% of pairings of all light chain designs, centred on 2.64 (5% of these signals below 1.59); values are not corrected for it.

The variant HFSQVTMYGYWNKNSVA | QTSTREE | QQYDRLPLS [En_HC] showed 0.24, 0.20, -0.08, 0.17, 0.38, -0.05 (mean 0.14).
The variant KLLQEVTGHMRNRNSVA | HNSTRED | QQYDRLPLI [En_HC] showed nd, 3.44, 2.98, nd, nd, nd (mean 3.21).
The variant IVSQLMLWGMHVKNSIA | EAVTRVN | QQYDRLPLI [En_Gen] showed nd, 3.12, nd, nd, nd, nd.
The variant RMNKHMSGATEAKNSMA | GVEHRAN | QQYDRLPLS [En_Gibbs] showed 0.65, 0.31, 0.51, 0.57, 0.20, 0.57 (mean 0.47).
The variant TIGQVMNWESRNTNSVA | QTSEREE | QDYDRLPLS [En_HC] showed 1.83, 1.56, nd, 2.03, 1.25, nd (mean 1.67).
The variant KSSGSVMGEDMNKNSVA | DASKRES | QQYHRLPLS [GP_Gibbs] showed 0.02, 0.30, 0.03, 0.15, 0.26, 0.15 (mean 0.15).
The variant MVSQLMLWGLHAKNSIA | EAVTRYN | QQYDRLPLI [En_Gen] showed 3.87, nd, nd, nd, 2.91, nd (mean 3.39).
The variant VMFMGLYWNNDEHYAIA | DVTMREK | QQYHRLPLM [En_Gibbs] showed nd, nd, nd, nd, nd, nd.
The variant KQSQSVPMGERNKQSVA | MASYRES | QQYHRLPLS [GP_Gibbs] showed 1.83, 1.90, nd, nd, 3.81, nd (mean 2.51).
The variant TISNSFMMENQFKNSVA | QASTREN | QCYDRLPLS [En_HC] showed 1.70, 1.99, 1.83, 1.50, 1.24, 1.96 (mean 1.71).
The variant KISGYLNKEMKNKNSVA | EMVNRES | QQYDRLPLS [En_HC] showed nd, 1.64, 1.66, 2.41, 2.86, 2.45 (mean 2.20).
The variant NVGQLMDGESRNKNSVA | HQSTRED | QHYHRLPLI [En_HC] showed nd, nd, nd, nd, nd, nd.
The variant MIGESYGNMVMKKNSIA | DNTTRED | QQYDRLPLS [En_Gen] showed 1.52, 3.32, 2.44, 3.28, 2.44, 2.50 (mean 2.58).
The variant MISQLMNLGQFAINSVA | QAEIRNN | QQYDRLPLV [En_Gen] showed nd, nd, nd, nd, nd, nd.
The variant TISMVMNHMTKNKNNVA | NMDMREV | QQYDRLPLS [En_Gen] showed 0.44, 0.70, 1.21, 0.41, 0.52, 0.05 (mean 0.55).
The variant KLQFLVLYESRNKNSVA | DASTRFS | QAYHRLPLS [GP_Gibbs] showed nd, nd, 1.07, nd, 1.57, 1.06 (mean 1.23).
The variant KLQQGMDYESRNDNSVA | HASKRES | QQYHRLPLF [GP_Gibbs] showed -0.01, -0.24, 0.06, -0.09, 0.08, 0.07 (mean -0.02).
The variant MFSQLMEYGSRYKNSVA | QASTREN | QQYHWLPLS [En_HC] showed 0.67, 0.22, 0.16, 0.62, 0.70, 1.03 (mean 0.57).
The variant RLKCTSLEHGRQNNAIA | AAAKLVT | QQYARLPLT [En_Gibbs] showed 0.96, 1.26, 0.35, 0.56, 0.82, 0.99 (mean 0.82).
The variant KSSNSTLYEDGMKNSVA | NASKRMS | QQYHRLPLS [GP_Gibbs] showed 0.62, 0.51, 0.55, 0.49, 0.42, 0.69 (mean 0.55).
The variant KIQDNLGTLMEQINSVA | ASEEISD | QSYFRLPLI [En_Gibbs] showed 1.61, 1.41, 1.59, 1.69, 0.79, 2.02 (mean 1.52).
The variant MLSMVTEGMRRKHNSVA | DNSTKES | QQYDRLPLS [En_Gen] showed nd, nd, 2.31, 2.56, 2.64, 2.25 (mean 2.44).
The variant NLSGMVEEQETRQKNIA | EVEFRCM | QQYSRLPLS [En_Gibbs] showed nd, nd, nd, nd, nd, nd.
The variant KLSISYLFESQEKNSIA | ENSTRES | QHYHRLPLS [En_HC] showed nd, 2.24, nd, nd, nd, nd.
The variant KLEDQMQTSIASDNSVA | DTNMGHE | QQYNRLPLV [En_Gibbs] showed 0.70, 0.63, 0.72, 0.60, 0.34, 0.88 (mean 0.64).
The variant HLSDTVMQGSYYRNSVA | QEETRAD | QQYHHLPLS [En_HC] showed 0.07, 0.38, 0.59, -0.02, 0.50, 0.54 (mean 0.34).
The variant RVSSMLMAGGGIYNNIA | GTKVLER | QQYMRLPLM [En_Gibbs] showed 0.16, 0.23, 0.08, 0.20, 0.10, 0.40 (mean 0.20).
The variant GLSNQETEQIAHANSIA | DRDERDV | QQYAHLPLS [En_Gibbs] showed 0.38, 0.64, 0.31, 0.46, 0.59, 0.57 (mean 0.49).
The variant KVSEFMKGLMMRTDSIA | DNNTRSN | QQYDRLPLS [En_Gen] showed 2.81, 1.91, 2.51, 2.64, 2.42, 2.60 (mean 2.48).
The variant KAQLDHQGQPRNHNSIA | EGISRTT | QQYFRLPLM [En_Gibbs] showed 0.37, 0.54, 0.16, -0.07, -0.48, 0.35 (mean 0.15).
The variant IISGIMLMESRNKNSVA | NAETREY | QHYDRLPLS [En_HC] showed nd, nd, nd, 2.56, nd, nd.
The variant HLSQSQDYESRNKNSVA | NASTRLH | QQYHRLPLS [GP_Gibbs] showed 0.24, 0.15, 0.19, 0.08, 0.03, 0.37 (mean 0.18).
The variant HVSGLYTDESVRGYNIA | ETSHVEE | QQYERLPLI [En_Gibbs] showed 1.58, 0.51, 0.83, 0.84, -0.03, 0.97 (mean 0.78).
The variant MMSQVTGMGQRHRNNVA | QTSEREP | QQYDRLPLI [En_Gen] showed 0.92, 0.85, 0.90, 0.81, 0.91, 0.88 (mean 0.88).
The variant TISTSMRYESSLKNAIA | NAQTREA | QQYHRLPIS [En_HC] showed 1.62, 3.15, 1.80, 1.30, 2.49, 2.42 (mean 2.13).
The variant KVDQEWQYGSRNKNSVA | NASQRES | QQYHRLPLS [GP_Gibbs] showed -0.10, -0.04, -0.26, -0.46, -0.38, -0.25 (mean -0.25).
The variant KLSQSEPYESRCANSVA | NASTRCS | QQYHRLPLS [GP_Gibbs] showed 0.53, 0.44, 0.72, 0.70, 0.59, 0.42 (mean 0.57).
The variant KIGGVTNGISRSKNSVA | EQNTRED | QQYDRLPLS [En_HC] showed 0.75, 1.38, 0.94, 0.92, 0.84, 0.92 (mean 0.96).
The variant TISQSANMTSHGRNSVA | QAEMRES | QQYDRLPLS [En_HC] showed nd, 2.05, 2.42, nd, nd, 0.80 (mean 1.76).
The variant KISMTYRYESVASNSIA | EMTTRAE | QSYHRLPLS [En_HC] showed 1.82, 1.18, 1.06, 1.35, 1.20, 1.37 (mean 1.33).
The variant KLSGSQLYQSRNSNAVA | NASTRMS | QQYHRLPLS [GP_Gibbs] showed 0.55, 0.56, 0.35, 0.37, 0.35, 0.56 (mean 0.46).
The variant KLSWSVEYEDRLSNSVA | NASQREW | QQYHRLPLS [GP_Gibbs] showed 0.33, 0.16, 0.06, 0.01, 0.03, 0.20 (mean 0.13).
The variant HMSALTMLGMRQRNSVA | QMTTREN | QQYDRLPLV [En_Gen] showed 1.52, 1.23, 1.14, 0.76, 1.02, 1.05 (mean 1.12).

The authors' rule: three or more of the six replicates give a measured affinity, fewer mean a poor binder. Values of this round are not directly comparable with the first-round values of the same sequences.

Values reported by Li et al. 2023, doi:10.1038/s41467-023-39022-2 (FLAb copy).